Assay results as given in patent publication EP4620949A1, “ACKR3 MODULATORS FOR CARDIOVASCULAR OR ANTIPLATELET THERAPY” (Eberhard Karls Universität Tübingen (Medizinische Fakultät), priority 2024, dated 2025).

By UniProt entry, the sequences of proteins in these tests, tags left out. Where a name states a change or a piece, a line headed by the entry shows the natural chain unless it says otherwise.
UniProt P25106: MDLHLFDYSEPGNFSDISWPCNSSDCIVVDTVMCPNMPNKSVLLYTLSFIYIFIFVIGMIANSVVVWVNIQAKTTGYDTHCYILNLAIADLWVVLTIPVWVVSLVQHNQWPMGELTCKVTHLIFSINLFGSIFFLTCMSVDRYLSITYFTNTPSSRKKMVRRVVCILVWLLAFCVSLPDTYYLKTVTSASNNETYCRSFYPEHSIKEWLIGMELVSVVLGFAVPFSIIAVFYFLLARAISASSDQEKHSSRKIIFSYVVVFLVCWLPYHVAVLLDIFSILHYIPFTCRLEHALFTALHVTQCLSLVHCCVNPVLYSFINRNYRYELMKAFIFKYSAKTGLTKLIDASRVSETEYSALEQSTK

Biological target: T1, human ACKR3 (Homo sapiens, UniProt P25106)
T1 construct: expressed in transfected cells; host or cells: HEK293T
Experiment: ACKR3 β-Arrestin recruitment assay (NanoLuc complementation, NanoBiT) in HEK293T cells
Format: cell-based
Details: efficacy of CXCL12 at 300 nM set as 100%; average of three independent experiments
Description: ACKR3 β-Arrestin Recruitment Assay. […] T.; Encell, L. P.; Wood, K. V. Nanoluc complementation reporter optimized for accurate measurement of protein interactions in cells. […] B.; Reynders, N.; Vanderplasschen, A.; Ollert, M.; Bouvier, M.; Szpakowska, M.; Chevigné, A. Proadrenomedullin n-terminal 20 peptides (pamps) are agonists of the chemokine scavenger receptor ACKR3/CXCR7. […] The prepared cells were then treated with compounds at concentrations ranging from 0.3 nM to 100 µM. Induction of β-Arrestin recruitment to receptors was evaluated by measuring bioluminescence with a Mithras LB940 luminometer (Berthold Technologies).
All curves were fitted to data points generated from the mean of at least three independent experiments. Results with values of p < 0.05 were considered statistically significant.

CCN(CCCNC(=O)c1ccc(-c2ccccc2)s1)Cc1ccccc1 [Compound 23, N-(3-(benzyl(ethyl)amino)propyl)-5-phenylthiophene-2-carboxamide]
Efficacy (Emax) vs CXCL12: 95%
